For the test, the target named is Insulin Receptor (IR) (UniProt P06213 28-956, limits assumed). Put plainly: BIAcore competition: IR pre-incubated with competitor, residual binding to immobilised insulin. (In general: SPR reads the build-up and loss of mass on a sensor chip optically.)

The source of these data is patent publication US20040023887A1 (published 2004).

B1: 447-MBP (other, not shown: large carriers)
chain: LCQRLGVGWPGWLSGWCA
notes: also called hGH Pept; Fus
Take B1: the “Result (RUs)” value is 195 RU.
